Apparent affinities of Ab-14 variants for a coronavirus HR2 peptide

From the AlphaSeq antibody data of Li et al. 2023 (doi:10.1038/s41467-023-39022-2), copy in the FLAb collection.

All variants were tested on one target, the spike HR2 peptide PDVDLGDISGINAS (SARS-CoV-2).

The variants keep the heavy chain, the linker and the frameworks of Ab-14 (scFv order VH, a 15-residue (Gly4Ser)3 linker, VL).
VH: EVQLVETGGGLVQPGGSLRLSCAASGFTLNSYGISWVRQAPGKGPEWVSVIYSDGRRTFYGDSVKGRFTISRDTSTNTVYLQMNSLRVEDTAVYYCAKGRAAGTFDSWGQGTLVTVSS
VL: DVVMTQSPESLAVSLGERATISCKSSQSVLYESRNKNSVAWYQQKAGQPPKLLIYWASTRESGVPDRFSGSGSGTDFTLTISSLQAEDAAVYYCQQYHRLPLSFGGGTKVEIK

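Phage display of a naive human antibody library on the peptide gave the parent. This is the validation round: designs drawn from the data on random variants, tested in the same kind of assay. Their group label is 14L_En_Gibbs (En: ensemble of fine-tuned language models; Gibbs: Gibbs sampling). Affinity was read by AlphaSeq, a pooled yeast mating assay with surface-displayed partners. Pairs that bind mate more often; barcode pairs of the diploids are counted by sequencing. Scores were corrected for input abundance and mapped to Kd with protein pairs of known affinity run in the same pool. The assay was run in six technical replicates.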

The parent's light chain CDRs are KSSQSVLYESRNKNSVA, WASTRES, QQYHRLPLS; each variant's own CDRs replace them letter for letter.
Values are log10 of the apparent Kd in nM; lower means stronger binding.
Replicates are averaged; those with no signal do not enter the mean.
"nd" marks a missing value. The strain was present, yet no cells mated with the target were sequenced in that replicate, which points to weak or no binding.

With KMAMALSPEFGTYHGVA | DAEHRMH | QQYNRLPLS the result was 0.17, -0.04, -0.16, -0.25, -0.13, 0.00 (mean -0.07; controls 0 of 18).
With KFSASLYRSGSEASSVA | EAEEVRQ | QHYNRLPLG the result was nd, nd, nd, nd, nd, nd (controls 0 of 18).
With IVTEAQNENSLYTNNIA | EGENTLA | QQYFRLPLM the result was 1.27, 0.83, 0.83, 0.95, 1.15, 1.06 (mean 1.02; controls 1 of 18).
With MISMMHASQYNESSSIA | NAEATNS | QQYHELPLS the result was nd, 1.78, nd, nd, nd, nd (controls 2 of 18).
With KLQQESNNMNDIQNSVA | DESMLEY | QHYWRLPLT the result was 2.19, 2.13, nd, nd, 4.08, 2.67 (mean 2.77; controls 0 of 18).
With SLYEAMQTGKLRTSNIA | DVNQQMR | QQYSRLPLM the result was 0.61, 0.22, 0.12, 0.18, 0.17, 0.37 (mean 0.28; controls 0 of 18).
With FLQGFGENSNRNSKNIA | SKETRQV | QQYMRLPLS the result was 0.13, -0.07, 0.00, -0.03, -0.09, 0.09 (mean 0.00; controls 2 of 18).
With SLSVFNLTDANKWDSVA | NSAATRI | QQYQRLPLS the result was 1.42, 1.30, 1.14, nd, 0.71, nd (mean 1.14; controls 0 of 18).
With RLLYLDLAQTGKLNSVA | DATITQQ | QQYHQLPLM the result was 0.61, 0.57, 0.49, 0.42, 0.50, 0.71 (mean 0.55; controls 1 of 18).
With RIYIQSDYYMENRSAIA | EMSLKAM | QQYFKLPLA the result was nd, nd, 2.47, 2.49, 2.08, nd (mean 2.35; controls 0 of 18).
With NLSMELEDMGVKTKSIA | ENQLTEY | QQYARLPLM the result was 1.72, 1.97, 1.34, 1.19, 1.55, 1.76 (mean 1.59; controls 0 of 18).
With MISLCQNSYYDANNSIA | DRNERAM | QQYGRLPLV the result was 1.52, 1.68, 1.71, 1.72, 1.34, 1.76 (mean 1.62; controls 3 of 18).
With NIQNLGMENSVWKNSIA | DVNILEI | QQYWRLPLL the result was 0.67, 0.92, 0.78, 1.16, 0.91, 0.30 (mean 0.79; controls 2 of 18).
With HISSMDMHDGGIIHNVA | DTGVTSR | QQYARLPLI the result was 0.64, 1.10, 0.48, 0.48, 0.81, 0.68 (mean 0.70; controls 0 of 18).
With KIEWYPMENRLTISAIA | EASTIYQ | QQYMHLPLS the result was nd, nd, nd, nd, nd, nd (controls 0 of 18).
With FMQMDNDRMNDAAKNIA | DVDMRET | QQYARLPFM the result was 0.68, 1.48, 0.56, 0.54, nd, 0.70 (mean 0.79; controls 0 of 18).
With ALREDFYQEQVEMSAIA | DGEHLNN | QQYSMLPLS the result was 0.93, 1.41, 1.77, 1.06, 1.18, 1.52 (mean 1.31; controls 2 of 18).
With LIKGMVEGQYYWQNNIA | NSEERDR | QQYNHLPLS the result was 1.24, 1.70, 1.18, 0.88, 1.01, 1.00 (mean 1.17; controls 3 of 18).
With KLPHLSFVHDREKNNVA | DLNRKAA | QQYDRLPLT the result was 0.11, 0.09, 0.09, -0.05, 0.14, 0.36 (mean 0.12; controls 0 of 18).
With KLWAYTQGLFRNMQNIA | DGIYRVT | QQYGRLPLS the result was 0.73, 0.70, 0.92, 0.58, 0.52, 0.80 (mean 0.71; controls 2 of 18).
With SMGYALFHEDAKKKSIA | ENDVRVY | QQYAKLPLT the result was 0.17, -0.34, -0.60, -0.35, 0.60, -0.12 (mean -0.11; controls 0 of 18).
With QLLTGVTENAKNGKAIA | NNEEKAQ | QQYFRLPFS the result was 0.10, -0.09, -0.09, -0.20, -0.14, 0.00 (mean -0.07; controls 3 of 18).
With SLYGEYALPDQHTDSIA | DANLMMH | QQYHRLPLA the result was 0.81, 0.25, 0.40, 0.28, 0.51, 0.66 (mean 0.48; controls 1 of 18).
With SITVIDNYGSQLENNIA | QGVCKAE | QQYIRLPLI the result was nd, nd, nd, 1.12, nd, nd (controls 0 of 18).
With NISIEDYPENNFANNVA | NTDCRCE | QQYFMLPLM the result was 1.04, 1.09, 0.80, 0.98, 0.90, 1.54 (mean 1.06; controls 0 of 18).
With RIEILGEEVTQHYSNVA | EQHVTDM | QQYFRLPLS the result was 1.62, nd, nd, 2.01, 0.97, 1.12 (mean 1.43; controls 1 of 18).
With SLYEAMQTGGLHTSNIA | DVNQQMR | QHYMRLPLA the result was -0.08, 0.05, 0.00, -0.06, 0.02, 0.08 (mean 0.00; controls 1 of 18).
With KLDLYNGEMDKWGDNIA | EASTAGM | QHYWRLPLS the result was 1.91, nd, nd, nd, nd, nd (controls 0 of 18).
With RLTEHESESKAADASVA | DANTRGD | QQYHRLPLF the result was 1.00, 1.15, 0.25, 1.03, 1.03, 0.87 (mean 0.89; controls 1 of 18).
With KISINQMHYNGMRSAIA | NTNQAAM | QQYFHLPLM the result was 0.61, 0.57, 0.34, 0.04, 0.23, 0.16 (mean 0.33; controls 1 of 18).
With QLFHRWGQLEEISYAVA | DATTVID | QQYMHLPLT the result was 1.04, 0.79, 0.72, 0.42, 0.62, 1.15 (mean 0.79; controls 0 of 18).
With FFGYDIFQENMKAKSIA | EANMRVE | QQYAILPLT the result was 1.69, 1.51, 0.61, 0.76, 1.29, 2.01 (mean 1.31; controls 0 of 18).
With FFSQGFYMEENMAHNVA | DNEQRTN | QQYDQLPLV the result was 2.05, 2.14, 1.37, 1.31, 1.32, 1.40 (mean 1.60; controls 1 of 18).
With QFHQGMIGDQRNMHSIA | NAQAAVP | QYYFRLPLT the result was nd, 2.45, nd, nd, 0.79, 1.05 (mean 1.43; controls 1 of 18).
With HLSFPWQSGHDSTHAVA | NDSTLMT | QHYNRLPLS the result was nd, nd, nd, nd, nd, 2.21 (controls 1 of 18).
With QLSMWEQSGTRGYSSVA | DTDVRMA | QQYHRLPLS the result was 0.41, 0.34, 0.24, -0.01, 0.55, 0.57 (mean 0.35; controls 1 of 18).
With RLTEHTSERAYADAAVA | DASTRND | QQYHRLPLE the result was 0.17, 0.44, 0.43, 0.04, 0.13, 0.83 (mean 0.34; controls 0 of 18).
With HLYEAMQTGKLRTSAIA | DVNQQMR | QQYNRLPLM the result was 0.36, 0.46, 0.06, 0.23, 0.43, 0.33 (mean 0.31; controls 0 of 18).
With KLTDYMQGSNAMDNSIA | QTNIYHE | QQYGRLPLV the result was 1.08, 1.73, 1.29, 1.38, 1.49, 1.54 (mean 1.42; controls 2 of 18).
With SLSMFMDNYNQKYDSVA | DTANIDI | QQYDRLPLS the result was nd, nd, nd, nd, nd, nd (controls 0 of 18).
With MVTMELRYGDEWQNPIA | EASHLEA | QQYDHLPLG the result was 1.95, 2.31, 1.27, 2.06, 1.44, 1.94 (mean 1.83; controls 1 of 18).

Picked from the list: the 2 lowest averages where every replicate gave a value.

Variant SMGYALFHEDAKKKSIA | ENDVRVY | QQYAKLPLT gave 0.17, -0.34, -0.60, -0.35, 0.60, -0.12 (mean -0.11; controls 0 of 18).
Variant QLLTGVTENAKNGKAIA | NNEEKAQ | QQYFRLPFS gave 0.10, -0.09, -0.09, -0.20, -0.14, 0.00 (mean -0.07; controls 3 of 18).

The parent sequence was in this pool as ten entries: three were never detected, three once, and four in most replicates, with averages from 0.34 to 2.37.
As a blank, each scFv also met three strains without target: over all light chain designs, 4% of these pairings were detected, typically at 2.64 and seldom below 1.59. For each scFv, signals with the empty controls are counted beside the result.
The range of this assay differs from that of the first round, and the authors advise against merging the two.
In the paper, a design with two or fewer of six values counts as a poor binder.